Antibody variant affinities, Ab-14 light chain, assay B

Values reported by Li et al. 2023, doi:10.1038/s41467-023-39022-2 (FLAb copy).

Antigen: PDVDLGDISGINAS, a 14-residue peptide of the SARS-CoV-2 spike HR2 region.

Each scFv is VH, a 15-residue (Gly4Ser)3 linker, VL, as in the parent Ab-14, and differs from it in the CDRs of the light chain only.
VH: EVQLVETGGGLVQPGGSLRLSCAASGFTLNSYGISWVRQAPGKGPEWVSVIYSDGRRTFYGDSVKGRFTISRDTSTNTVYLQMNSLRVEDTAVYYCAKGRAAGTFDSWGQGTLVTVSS
VL: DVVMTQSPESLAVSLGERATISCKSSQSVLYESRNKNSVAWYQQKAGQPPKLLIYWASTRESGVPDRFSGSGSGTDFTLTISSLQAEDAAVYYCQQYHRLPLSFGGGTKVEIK

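The parent was found by panning a naive human phage display library on the peptide. This is the validation round: designs drawn from the data on random variants, tested in the same kind of assay. Several design methods are mixed in this list. The assay is AlphaSeq: two haploid yeast populations carry antibody and antigen on their surface. Mating (16 h, 30 °C) was followed by selection of diploids and sequencing of their barcodes. Each replicate has its own calibration line, from reference interactions of the BCL2 family. The assay was run in six technical replicates.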

The parent's light chain CDRs are KSSQSVLYESRNKNSVA, WASTRES, QQYHRLPLS; each variant's own CDRs replace them letter for letter.
This list holds designs with at most six substitutions.
Scale: log10 of Kd in nM, estimated from mating counts; low values are strong binders.
A mean of the replicates is given; it leaves out those without a signal.
Where no diploid with the target was found in any replicate, the entry reads "not detected": below detection, most likely a poor binder, though not proof of it.

CDR-L1,CDR-L2,CDR-L3,"log10 Kd (nM), mean",seen in
KLQQSVLYESRNKNSVA,SASTRLS,QQYHRLPLS,-0.13,6/6
KSSQSNLYEMRNGNSVA,WASHRES,QQYHRLILS,not detected,0/6
KSLQSVLYESRNKNSVA,AASTRED,QQYHQLPLS,0.51,6/6
KSSQSVLYESRNKNSVA,WASTRVS,QQYHRLPLS,2.32,5/6
KLSQSVLYESRQKNSVA,NASTREE,QQYHRLPLS,-0.36,6/6
KLEESWLYESRNKNSVA,NASTRES,QQYHRLPLS,0.46,6/6
KLQQSVLYESRNKNSVA,SASQRES,QQYHRLPLS,-0.01,6/6
KSSQSVLNESMNKNSVA,WASTRES,QQYHRLPLS,1.56,6/6
KVSQSVLYEQRNKNAVA,EASTRES,QQYHRLPLS,0.05,6/6
KSSCSVLYDSTNFNSVA,WASTRES,QQYHRLPLS,not detected,0/6
KSSISYLYESENKWSVA,EASQRES,QQYHRLPLS,1.54,2/6
KSSQSVGMESRNSNSVA,DASTRES,QQYHRLPLS,0.35,6/6
KFSQKVLYEDRTKNSVA,NASTRES,QQYHRLPLS,0.17,6/6
KSSQSVLKESQNKNSVA,HASTRES,QQYHRLPLS,0.68,6/6
KSSISDLYESRNCNSVA,WASTRES,QQYIRLPIS,not detected,0/6
KQSWSVLFESRNKNSVA,DASTRSS,QQYHRLPLS,0.40,6/6
KLSQSLLYESRNKNSVA,WASTRES,QQYSRLPLS,0.29,6/6
KSSISVLFESNNSNAVA,WASTRES,QQYFRLPLS,not detected,0/6
RSSQSVLYESRNSNSVA,DASTRES,QQYHRLPLS,0.61,6/6
KLSQSMEYESRNVNSVA,SASTREL,QQYHRLPLS,0.07,6/6
KMGQFVLYEDRLKNSVA,WASTRES,QQYHRLPLS,not detected,0/6
KLSQSTLYESRNKNSVA,NASTREM,QQYHRLPLS,0.12,6/6
KSWQSVLYESRYKNSVA,QASTRES,QQYVRLPLS,0.24,6/6
KLSQSQLYESRNKNSVA,NASTRSS,QQYHRLPLS,-0.01,6/6
KLSQSVLYESRNKNSVA,NASTRES,QQYHRLPLT,-0.35,6/6
KISQSVLYEDRNLNSVA,WASTRES,QQHHRLPLS,2.86,1/6
KQSQSVGYESRNKNSVA,DASTRES,QQYHRLPLD,0.72,6/6
KSSISYLYESRNKNSVA,EASTREV,QQYHRLPLM,0.66,6/6
KVAQSVLYESRNKNSVA,EASTRES,QQYHRLPLS,-0.33,6/6
KFSQSWLYESRNKNSVA,NASTRES,QQYHRLPLS,-0.11,6/6
KLSQSVGYQSRNKWNVA,NASTRES,QQYHRLPLS,0.16,6/6
KYSNSVLYDSRLKNSVA,EASTRES,QQYHRMPLS,0.62,6/6
KLSQSVLYESRNKNSVA,EASTRED,QQYHRLPLS,-0.12,6/6
KAPQSWLYESRNKNSVA,GASTRES,QQYHRLPLI,-0.09,6/6
IQSQSVLMESRNKNSVA,DASTRES,QQYHRLPLS,0.27,6/6
KLEQSTLYESRNKNSVA,NASQRLS,QQYHRLPLS,-0.34,6/6
HLSWVQLYESRNKNSVA,NASTRES,QQYHRLPLS,-0.18,6/6
KVSGSMLYESRNKNSVA,NASTRES,QQYHRLPLS,-0.16,6/6
KLEQSNNYESRNKNSVA,NASTRES,QQYHRLPLS,-0.11,6/6
KVSQSDLYEDRNKNSVA,NASQRES,QQYHRLPLS,-0.67,6/6
KSGQGVLYESRNKNSVA,GASQRMS,QQYHRLPLS,-0.03,6/6
KMSQSVLYESRNKNSVA,WASTRDS,QQYHRLPLS,1.21,6/6
KLDQSALYESRNKNSVA,GASTRES,QQYHRLPLS,-0.52,6/6
KFSQSVAYESRTKNNVA,NASTRES,QQYHRLPLS,0.52,6/6
KSSQSVWLERRNKNSVA,WASTRES,QQYHRLPLS,1.86,6/6
KSSQSVPYESRNKNSVA,SASTRES,QQYHRLPNS,0.49,6/6
KSSQSVLYESENKNSVA,ASSTRES,QQYHRLPLS,1.35,6/6
KMQQSVLYESRNKNSVA,NASTRES,QQYHRLPLS,-0.26,6/6
KSHQSVLYESRNANSVA,RASTRES,QQYHRLPLS,0.53,6/6
KISTSVVYESRNKNSVA,WASTRES,QQYHRLPLS,1.42,6/6
KSMQSVLYESRNKNSVA,AASHRES,QQYHRLPLS,1.00,6/6
KLSQSELYESRNKNNVA,GASTRES,QQYHRLPLS,-0.56,6/6
KLPQSDLYESRNKNAVA,EASTRES,QQYHRLPLS,-0.30,6/6
KVSQSVLYESRMKNSVA,KASTREW,QQYQRLPLS,1.11,6/6
KSPQSFLYESRNVNSVA,GASTRES,QQYHRLPLS,-0.14,6/6
KSSQSVLDESCNKNSVA,DASQRVS,QQYARLPLS,0.82,6/6
KESQSWVYESRNKNSVA,GASTRES,QQYHRLPLS,0.00,6/6
KSGQGVLYESRNKNSVA,GSSTRES,QQYHRLPLS,0.13,6/6
KLDQSFLYESRNKNSVA,EASERES,QQYHRLPLY,-0.11,6/6
KSSQSQLYESRNKNSVA,GASTRES,QQYHRLPLS,0.69,6/6
KLSQSVLYESRNKNSVA,NASTRMK,QQYHRLPLS,-0.05,6/6
KLSQSELYESRNKNSVA,QASQRES,QQYHRLPLS,0.44,6/6
KLSQSWLYESRNKNSVA,NASQREV,QQYHRLPLS,-0.13,6/6
KSSQSQLYESSNKNSVA,NASTRES,QQYHRLPLS,0.17,6/6

3 of these entries, quoted again:

CDR-L1,CDR-L2,CDR-L3,"log10 Kd (nM), mean",seen in
KVSGSMLYESRNKNSVA,NASTRES,QQYHRLPLS,-0.16,6/6
HLSWVQLYESRNKNSVA,NASTRES,QQYHRLPLS,-0.18,6/6
KSHQSVLYESRNANSVA,RASTRES,QQYHRLPLS,0.53,6/6

Nonspecific signal, from three strains lacking the peptide, appeared in 4% of pairings of all light chain designs, centred on 2.64 (5% of these signals below 1.59); values are not corrected for it.
A sequence measured in both rounds can read differently, since the two assays cover different ranges.
In the paper, a design with two or fewer of six values counts as a poor binder.